Data set [1] is described as follows: in vivo. Also noted: species or system mice. Conditions: mouse, sc, 1 mg/kg. As to the method: Mice were dosed 1 mg/kg subcutaneously (s.c.). The mice were sacrificed and blood samples were collected after 0.25, 1, 2, 4, 8, 16 and 24 hours post application. Plasma samples were analysed after protein precipitation via liquid chromatography mass spectrometry (LC/MS). PK parameters and half-life were calculated using WinonLin Version 5.2.1 (non-compartment model).
Pharmacokinetic profiles were determined as described in Methods.

Sequences of proteins named here, by UniProt entry; tags and fusion partners are left off. Residues count along the entry.
UniProt P47871, 26-477: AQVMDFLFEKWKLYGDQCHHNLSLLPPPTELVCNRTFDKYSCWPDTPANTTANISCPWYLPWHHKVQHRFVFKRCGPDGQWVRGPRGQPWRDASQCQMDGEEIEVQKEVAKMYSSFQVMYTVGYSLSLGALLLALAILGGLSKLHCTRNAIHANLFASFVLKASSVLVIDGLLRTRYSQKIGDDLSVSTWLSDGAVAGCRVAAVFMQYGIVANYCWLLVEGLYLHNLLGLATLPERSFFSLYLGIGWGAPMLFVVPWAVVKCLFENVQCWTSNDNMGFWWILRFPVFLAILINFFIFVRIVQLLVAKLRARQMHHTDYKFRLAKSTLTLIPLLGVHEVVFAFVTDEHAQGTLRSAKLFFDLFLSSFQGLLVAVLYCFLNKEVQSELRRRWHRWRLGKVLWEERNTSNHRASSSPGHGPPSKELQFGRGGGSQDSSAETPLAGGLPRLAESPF
UniProt P43220, 24-463: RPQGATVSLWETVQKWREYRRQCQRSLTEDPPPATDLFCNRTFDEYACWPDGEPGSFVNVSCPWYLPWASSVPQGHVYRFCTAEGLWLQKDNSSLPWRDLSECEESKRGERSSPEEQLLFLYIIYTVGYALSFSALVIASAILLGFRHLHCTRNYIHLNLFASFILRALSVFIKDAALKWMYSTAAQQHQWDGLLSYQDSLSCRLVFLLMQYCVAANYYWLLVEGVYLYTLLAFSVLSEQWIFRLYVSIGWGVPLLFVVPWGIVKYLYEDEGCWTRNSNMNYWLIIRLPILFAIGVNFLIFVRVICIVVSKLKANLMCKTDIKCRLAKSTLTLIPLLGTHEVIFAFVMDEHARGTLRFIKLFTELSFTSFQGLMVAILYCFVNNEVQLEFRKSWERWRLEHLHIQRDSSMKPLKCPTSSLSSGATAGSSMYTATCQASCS

Data set [2] addresses T1, human glucagon receptor (Homo sapiens, UniProt P47871).
T1 construct: expressed in transfected cells; host or cells: HEK-293
In words: cAMP response (HTRF) of HEK-293 cells stably expressing human glucagon receptor. In kind it is cell-based. To be noted: read-out: EC50 hGlucagon-R. (In general: TR-FRET usually uses a lanthanide donor and a delayed reading to cut background.)

For data set [3], the target named is T2, human GLP-1 receptor (Homo sapiens, UniProt P43220).
T2 construct: expressed in transfected cells; host or cells: HEK-293
In words: cAMP response (HTRF) of HEK-293 cells stably expressing human GLP-1 receptor. To be noted: read-out: EC50 hGLP-1R. In kind it is cell-based.

Data set [4] in a line: physchem. In kind it is physicochemical. As to the method:
Prior to the testing of solubility and stability of a peptide batch, its content was determined. Therefore, two parameters were investigated, its purity (HPLC-UV) and the amount of salt load of the batch (ion chromatography). Since synthesized peptides contain primarily trifluoroacetate anions, only anion chromatography was performed.
. Therefore, solutions from solid samples were prepared in different buffer systems with a concentration of 1.0 mg/mL compound based on the previously determined content. HPLC-UV was performed after 2 h of gentle agitation from the supernatant, which was obtained by 20 min of centrifugation at 4000 rpm.
This analysis also served as starting point (t0) for the stability testing.
Instrument: Agilent 1100, column: X-Bridge C18 3.5 μm 2.1×150 mm (Waters), eluent: A: H20+500 ppm TFA/B: Methanol, flow: 0.55 mL/min, gradient: 0-5 min: 10-60% B; 5-15 min: 60-99% B; detection: 214 nm.

Where [5] appears, read: Table 8, comparison testing of position 14.

Like-named read-outs stand apart in the source and are kept apart here.

`CCCCCCCCCCCCCCCC(=O)N[C@@H](CCC(=O)NCCCC[C@H](NC(=O)[C@H](CCC(N)=O)NC(=O)[C@H](CCCCN)NC(=O)[C@H](CO)NC(=O)[C@H](CC(C)C)NC(=O)[C@H](CC(=O)O)NC(=O)[C@H](CO)NC(=O)[C@@H](NC(=O)[C@H](Cc1ccccc1)NC(=O)[C@@H](NC(=O)CNC(=O)[C@H](CCC(N)=O)NC(=O)[C@@H](CO)NC(=O)[C@@H](N)Cc1c[nH]cn1)[C@@H](C)O)[C@@H](C)O)C(=O)N[C@@H](CCC(=O)O)C(=O)N[C@@H](CO)C(=O)N[C@@H](CCC(N)=O)C(=O)N[C@@H](C)C(=O)N[C@@H](C)C(=O)N[C@@H](CCC(N)=O)C(=O)N[C@@H](CC(=O)O)C(=O)N[C@@H](Cc1ccccc1)C(=O)N[C@H](C(=O)N[C@@H](CCC(=O)O)C(=O)N[C@@H](Cc1c[nH]c2ccccc12)C(=O)N[C@@H](CC(C)C)C(=O)N[C@@H](CCCCN)C(=O)N[C@@H](C)C(=O)NCC(=O)NCC(=O)N1CCC[C@H]1C(=O)N[C@@H](CO)C(=O)N[C@@H](CO)C(=O)NCC(=O)N[C@@H](C)C(=O)N1CCC[C@H]1C(=O)N1CCC[C@H]1C(=O)N1CCC[C@H]1C(=O)N[C@@H](CO)C(N)=O)[C@@H](C)CC)C(=O)O` [compound 35] registered a Cmax in data set [1] of 4910 ng/mL. The half-life in data set [1] was 3.6 h. Moreover, the concentration giving a half-maximal response (EC50) turned out to be 14.2 pM in data set [2] (Table 5, cAMP, HEK-293) and 1.5 pM in data set [3] (Table 5, cAMP, HEK-293). Moreover, the solubility at 2 h in data set [4] (pH 4.5) and in data set [4] (pH 7.4) was greater than 1000 µg/mL each time.

`CCCCCCCCCCCCCCCC(=O)N[C@@H](CCC(=O)NCCCC[C@H](NC(=O)[C@H](CCC(N)=O)NC(=O)[C@H](CCCCN)NC(=O)[C@H](CO)NC(=O)[C@H](CC(C)C)NC(=O)[C@H](CC(=O)O)NC(=O)[C@H](CO)NC(=O)[C@@H](NC(=O)[C@H](Cc1ccccc1)NC(=O)[C@@H](NC(=O)CNC(=O)[C@H](CCC(N)=O)NC(=O)[C@@H](CO)NC(=O)[C@@H](N)Cc1c[nH]cn1)[C@@H](C)O)[C@@H](C)O)C(=O)N[C@@H](CC(=O)O)C(=O)N[C@@H](CO)C(=O)N[C@@H](CCCNC(=N)N)C(=O)N[C@@H](CCCNC(=N)N)C(=O)N[C@@H](C)C(=O)N[C@@H](CCC(N)=O)C(=O)N[C@@H](CC(=O)O)C(=O)N[C@@H](Cc1ccccc1)C(=O)N[C@H](C(=O)N[C@@H](CCC(=O)O)C(=O)N[C@@H](Cc1c[nH]c2ccccc12)C(=O)N[C@@H](CC(C)C)C(=O)N[C@@H](CCCCN)C(=O)N[C@@H](CC(N)=O)C(=O)NCC(=O)NCC(=O)N1CCC[C@H]1C(=O)N[C@@H](CO)C(=O)N[C@@H](CO)C(=O)NCC(=O)N[C@@H](C)C(=O)N1CCC[C@H]1C(=O)N1CCC[C@H]1C(=O)N1CCC[C@H]1C(=O)N[C@@H](CO)C(N)=O)[C@@H](C)CC)C(=O)O` [compound 97] came in with a Cmax in data set [1] of 2000 ng/mL. For the same compound, the half-life in data set [1] is 3.2 h. The EC50 in data set [2] (Table 5, cAMP, HEK-293) is 1 pM; in data set [2] (setting [5]), 1.2 pM; in data set [3] (Table 5, cAMP, HEK-293), 3.5 pM; in data set [3] (setting [5]) it was 6.8 pM. The solubility at 2 h in data set [4] (pH 4.5) and in data set [4] (pH 7.4) was greater than 2000 µg/mL throughout.

In data set [1], `CCCCCCCCCCCCCCCC(=O)NCCCC[C@H](NC(=O)[C@H](CCC(N)=O)NC(=O)[C@H](CCCCN)NC(=O)[C@H](CO)NC(=O)[C@H](CC(C)C)NC(=O)[C@H](CC(=O)O)NC(=O)[C@H](CO)NC(=O)[C@@H](NC(=O)[C@H](Cc1ccccc1)NC(=O)[C@@H](NC(=O)CNC(=O)[C@H](CCC(N)=O)NC(=O)C(C)(C)NC(=O)[C@@H](N)Cc1c[nH]cn1)[C@@H](C)O)[C@@H](C)O)C(=O)N[C@@H](CCC(=O)O)C(=O)N[C@@H](CO)C(=O)N[C@@H](CCCNC(=N)N)C(=O)N[C@@H](CCCNC(=N)N)C(=O)N[C@@H](C)C(=O)N[C@@H](CCC(N)=O)C(=O)N[C@@H](CC(=O)O)C(=O)N[C@@H](Cc1ccccc1)C(=O)N[C@H](C(=O)N[C@@H](CCC(=O)O)C(=O)N[C@@H](Cc1c[nH]c2ccccc12)C(=O)N[C@@H](CC(C)C)C(=O)N[C@@H](CCCCN)C(=O)N[C@@H](C)C(=O)NCC(=O)NCC(=O)N1CCC[C@H]1C(=O)N[C@@H](CO)C(=O)N[C@@H](CO)C(=O)NCC(=O)N[C@@H](C)C(=O)N1CCC[C@H]1C(=O)N1CCC[C@H]1C(=O)N1CCC[C@H]1C(=O)N[C@@H](CO)C(N)=O)[C@@H](C)CC` [compound 5] gave a Cmax of 3180 ng/mL and a half-life of 1.7 h. The concentration giving a half-maximal response (EC50) in data set [2] (Table 5, cAMP, HEK-293) was determined as 109 pM. For the same compound, the concentration for a half-maximal effect (EC50) in data set [3] (Table 5, cAMP, HEK-293) was 11 pM.

Regarding `CCCCCCCCCCCCCCCC(=O)N[C@@H](CCC(=O)NCCCC[C@H](NC(=O)[C@H](CCC(N)=O)NC(=O)[C@H](CCCCN)NC(=O)[C@H](CO)NC(=O)[C@H](CC(C)C)NC(=O)[C@H](CC(=O)O)NC(=O)[C@H](CO)NC(=O)[C@@H](NC(=O)[C@H](Cc1ccccc1)NC(=O)[C@@H](NC(=O)CNC(=O)[C@H](CCC(N)=O)NC(=O)[C@@H](CO)NC(=O)[C@@H](N)Cc1c[nH]cn1)[C@@H](C)O)[C@@H](C)O)C(=O)N[C@@H](CCC(=O)O)C(=O)N[C@@H](CO)C(=O)N[C@@H](CCCNC(=N)N)C(=O)N[C@@H](CCCNC(=N)N)C(=O)N[C@@H](C)C(=O)N[C@@H](CCC(N)=O)C(=O)N[C@@H](CC(=O)O)C(=O)N[C@@H](Cc1ccccc1)C(=O)N[C@H](C(=O)N[C@@H](CCC(=O)O)C(=O)N[C@@H](Cc1c[nH]c2ccccc12)C(=O)N[C@@H](CC(C)C)C(=O)N[C@@H](CCCCN)C(=O)N[C@@H](CCCCN)C(=O)NCC(=O)NCC(=O)N1CCC[C@H]1C(=O)N[C@@H](CO)C(=O)N[C@@H](CO)C(=O)NCC(=O)N[C@@H](C)C(=O)N1CCC[C@H]1C(=O)N1CCC[C@H]1C(=O)N1CCC[C@H]1C(=O)N[C@@H](CO)C(N)=O)[C@@H](C)CC)C(=O)O` [compound 85], the EC50 turned out to be 10.4 pM in data set [2] (Table 5, cAMP, HEK-293) and 8.1 pM in data set [3] (Table 5, cAMP, HEK-293). For the same compound, the solubility at 2 h was greater than 1000 µg/mL in data set [4] (pH 4.5) and greater than 969 µg/mL in data set [4] (pH 7.4).

Take `CCCCCCCCCCCCCCCCCC(=O)N[C@@H](CCC(=O)NCCCC[C@H](NC(=O)[C@H](CCC(N)=O)NC(=O)[C@H](CCCCN)NC(=O)[C@H](CO)NC(=O)[C@H](CC(C)C)NC(=O)[C@H](CC(=O)O)NC(=O)[C@H](CO)NC(=O)[C@@H](NC(=O)[C@H](Cc1ccccc1)NC(=O)[C@@H](NC(=O)CNC(=O)[C@H](CCC(N)=O)NC(=O)[C@@H](CO)NC(=O)[C@@H](N)Cc1c[nH]cn1)[C@@H](C)O)[C@@H](C)O)C(=O)N[C@@H](CC(=O)O)C(=O)N[C@@H](CO)C(=O)N[C@@H](CCCNC(=N)N)C(=O)N[C@@H](CCCNC(=N)N)C(=O)N[C@@H](C)C(=O)N[C@@H](CCC(N)=O)C(=O)N[C@@H](CC(=O)O)C(=O)N[C@@H](Cc1ccccc1)C(=O)N[C@H](C(=O)N[C@@H](CCC(=O)O)C(=O)N[C@@H](Cc1c[nH]c2ccccc12)C(=O)N[C@@H](CC(C)C)C(=O)N[C@@H](CCCCN)C(=O)N[C@@H](CC(N)=O)C(=O)NCC(=O)NCC(=O)N1CCC[C@H]1C(=O)N[C@@H](CO)C(=O)N[C@@H](CO)C(=O)NCC(=O)N[C@@H](C)C(=O)N1CCC[C@H]1C(=O)N1CCC[C@H]1C(=O)N1CCC[C@H]1C(=O)N[C@@H](CO)C(N)=O)[C@@H](C)CC)C(=O)O` [compound 8]: in data set [1], the highest concentration (Cmax) is 2680 ng/mL and the half-life is 3.3 h. Further, the EC50 in data set [2] (Table 5, cAMP, HEK-293) came to 2.3 pM. In addition, the EC50 in data set [3] (Table 5, cAMP, HEK-293) came to 6.3 pM.

With `CCCCCCCCCCCCCCCC(=O)N[C@@H](CCC(=O)NCCCC[C@H](NC(=O)[C@H](CCC(N)=O)NC(=O)[C@H](CCCCN)NC(=O)[C@H](CO)NC(=O)[C@H](CC(C)C)NC(=O)[C@H](CC(=O)O)NC(=O)[C@H](CO)NC(=O)[C@@H](NC(=O)[C@H](Cc1ccccc1)NC(=O)[C@@H](NC(=O)CNC(=O)[C@H](CCC(N)=O)NC(=O)[C@@H](CO)NC(=O)[C@@H](N)Cc1c[nH]cn1)[C@@H](C)O)[C@@H](C)O)C(=O)N[C@@H](CCC(=O)O)C(=O)N[C@@H](CO)C(=O)N[C@@H](CCCNC(=N)N)C(=O)N[C@@H](CCCNC(=N)N)C(=O)N[C@@H](C)C(=O)N[C@@H](CCC(N)=O)C(=O)N[C@@H](CC(=O)O)C(=O)N[C@@H](Cc1ccccc1)C(=O)N[C@H](C(=O)N[C@@H](CCC(=O)O)C(=O)N[C@@H](Cc1c[nH]c2ccccc12)C(=O)N[C@@H](CC(C)C)C(=O)N[C@@H](CCCCN)C(=O)N[C@@H](CCC(=O)O)C(=O)NCC(=O)NCC(=O)N1CCC[C@H]1C(=O)N[C@@H](CO)C(=O)N[C@@H](CO)C(=O)NCC(=O)N[C@@H](CCCNC(=N)N)C(=O)N1CCC[C@H]1C(=O)N1CCC[C@H]1C(=O)N1CCC[C@H]1C(=O)N[C@@H](CO)C(N)=O)[C@@H](C)CC)C(=O)O` [compound 82], the EC50 in data set [2] (Table 5, cAMP, HEK-293) was determined as 4.7 pM; in data set [3] (Table 5, cAMP, HEK-293), 11.7 pM. The solubility at 2 h in data set [4] (pH 4.5) and in data set [4] (pH 7.4) was greater than 1000 µg/mL in each case.

Usually Cmax stands for the peak of the concentration-time curve. Broadly, the half-life is how long it takes for the measured level to halve. As usually defined, the EC50 is the concentration needed to bring the measured effect to its halfway point. One may read the solubility as the dissolved amount per volume that the medium holds. Low values mean little dissolved substance, high ones much dissolved substance.

Source of the values: patent publication US20140100156A1 (SANOFI, priority 2012, published 2014).
